Source: paper PMC7744439 (European journal of medicinal chemistry, 2020)

Target: T1, HDAC6 (Homo sapiens, UniProt Q9UBN7)
T1 sequence (Q9UBN7 1-1215): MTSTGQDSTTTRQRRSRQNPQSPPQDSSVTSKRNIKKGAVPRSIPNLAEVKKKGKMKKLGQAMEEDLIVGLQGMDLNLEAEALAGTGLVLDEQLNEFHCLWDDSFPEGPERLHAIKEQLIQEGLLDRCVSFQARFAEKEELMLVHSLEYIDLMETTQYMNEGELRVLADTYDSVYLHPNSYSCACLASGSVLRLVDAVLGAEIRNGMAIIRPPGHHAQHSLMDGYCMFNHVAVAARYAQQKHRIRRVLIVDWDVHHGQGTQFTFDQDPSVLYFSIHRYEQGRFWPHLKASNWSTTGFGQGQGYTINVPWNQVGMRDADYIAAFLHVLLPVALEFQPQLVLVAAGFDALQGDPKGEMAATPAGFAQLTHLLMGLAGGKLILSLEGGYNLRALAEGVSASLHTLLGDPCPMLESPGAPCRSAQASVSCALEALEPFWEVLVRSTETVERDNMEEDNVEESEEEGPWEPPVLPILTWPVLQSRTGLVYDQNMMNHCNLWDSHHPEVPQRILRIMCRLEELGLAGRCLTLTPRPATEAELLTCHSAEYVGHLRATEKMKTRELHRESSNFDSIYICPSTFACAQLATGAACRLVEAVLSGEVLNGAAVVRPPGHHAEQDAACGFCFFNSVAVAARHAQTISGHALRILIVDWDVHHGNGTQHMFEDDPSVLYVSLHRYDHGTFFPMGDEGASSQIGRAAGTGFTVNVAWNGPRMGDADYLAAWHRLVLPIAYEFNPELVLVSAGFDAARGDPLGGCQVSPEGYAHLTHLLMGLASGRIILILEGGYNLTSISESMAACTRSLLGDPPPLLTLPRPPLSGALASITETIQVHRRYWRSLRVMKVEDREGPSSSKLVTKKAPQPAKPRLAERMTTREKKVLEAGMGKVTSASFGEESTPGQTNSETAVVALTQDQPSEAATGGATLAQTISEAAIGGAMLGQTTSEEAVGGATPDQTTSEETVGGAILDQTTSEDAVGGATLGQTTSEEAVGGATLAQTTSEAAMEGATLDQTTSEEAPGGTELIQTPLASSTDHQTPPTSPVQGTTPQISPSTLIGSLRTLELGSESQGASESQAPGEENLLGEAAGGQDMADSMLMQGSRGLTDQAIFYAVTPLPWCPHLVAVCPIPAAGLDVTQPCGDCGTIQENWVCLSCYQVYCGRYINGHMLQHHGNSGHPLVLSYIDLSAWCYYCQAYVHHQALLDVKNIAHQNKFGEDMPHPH
Test: HDAC6 enzymatic inhibition
Type: biochemical
Conditions: text prints -folds

CN(C)c1ccc(C(=O)NCCCCCNC(=O)CS)cc1 [Compound 20]
SI, HDAC1/6 selectivity index: 9.8
